Target: T1, Proteinase-activated receptor 1 (Homo sapiens, UniProt P25116)
T1 sequence (P25116 whole entry): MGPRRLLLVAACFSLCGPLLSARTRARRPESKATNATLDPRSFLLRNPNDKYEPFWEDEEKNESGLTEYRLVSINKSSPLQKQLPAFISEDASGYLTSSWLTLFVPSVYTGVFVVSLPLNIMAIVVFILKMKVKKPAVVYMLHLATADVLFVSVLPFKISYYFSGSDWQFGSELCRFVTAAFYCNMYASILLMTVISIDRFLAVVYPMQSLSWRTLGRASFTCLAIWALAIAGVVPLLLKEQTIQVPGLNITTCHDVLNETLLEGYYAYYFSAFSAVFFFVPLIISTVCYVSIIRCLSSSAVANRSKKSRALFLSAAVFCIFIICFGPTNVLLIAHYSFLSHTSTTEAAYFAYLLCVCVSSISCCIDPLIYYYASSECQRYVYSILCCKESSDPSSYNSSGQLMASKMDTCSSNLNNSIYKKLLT
Assay: Inhibition of PAR1 (unknown origin)

`COc1ccc(-c2c(CO)n(Cc3ccccc3Cl)c3ccc(OC(F)(F)F)cc23)cn1` was tested. Which IC50 did it give?
The IC50 was over 30 µM.

For `CSc1ncc(-c2c(CO)n(Cc3ccccc3Cl)c3ccc(OC(F)(F)F)cc23)cn1`, which IC50 is on record?
Its IC50 is over 30 µM.

From ChEMBL document CHEMBL4477245, “Development of a Series of (1-Benzyl-3-(6-methoxypyrimidin-3-yl)-5-(trifluoromethoxy)-1H-indol-2-yl)methanols as Selective Protease Activated Receptor 4 (PAR4) Antagonists with in Vivo Utility and Activity Against γ-Thrombin” (J Med Chem, 2016)
